Ab-14 light chain CDR variants: yeast mating affinities

Data: MIT Lincoln Laboratory AlphaSeq set, Li et al. 2023, doi:10.1038/s41467-023-39022-2, as distributed in FLAb.

Binding partner: SARS-CoV-2 spike HR2 peptide, sequence PDVDLGDISGINAS.

Each scFv is VH, the linker GGGGSGGGGSGGGGS, VL, as in the parent Ab-14, and differs from it in the CDRs of the light chain only.
VH: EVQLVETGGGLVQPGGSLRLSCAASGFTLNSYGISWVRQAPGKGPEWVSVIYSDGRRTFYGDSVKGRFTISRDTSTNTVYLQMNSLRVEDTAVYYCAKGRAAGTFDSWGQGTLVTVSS
VL: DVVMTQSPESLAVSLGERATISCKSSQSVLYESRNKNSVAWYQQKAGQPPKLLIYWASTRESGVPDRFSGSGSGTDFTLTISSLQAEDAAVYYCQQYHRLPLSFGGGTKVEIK

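This is the validation round: designs drawn from the data on random variants, tested in the same kind of assay. Several design methods are mixed in this list. In AlphaSeq, yeast of one mating type display the scFv and yeast of the other type display the target. The frequency of each diploid, read from paired DNA barcodes, reflects how well the two displayed proteins bind. Each replicate has its own calibration line, from reference interactions of the BCL2 family. Mating was done six times.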

Variants are written as CDR1, CDR2 and CDR3 of the light chain (limits as in the source). Parent: KSSQSVLYESRNKNSVA, WASTRES, QQYHRLPLS.
Variants here have more than six changes.
The read-out is the apparent dissociation constant on a log10 scale (nM): the lower, the stronger.
Replicates are averaged; those with no signal do not enter the mean.
"ND" means that the variant was in the library but no mating with the target was seen in that replicate; the authors take this as a sign of poor binding, and no number exists.
Entries are sorted by rising average.

The variant HLGQSTDLESVHKNSIA | DLMTRES | QQYHRLPLS gave 0.19, 0.01, -0.13, -0.25, -0.11, 0.18 (mean -0.02). With KQSQSEDYGSRNKNSVA | DASQRES | QDYHRLPLS the result was 0.16, 0.03, 0.04, -0.15, -0.19, 0.07 (mean -0.01). The variant KLVESVLYESRNSNSVA | NASYREE | QQYHRLPLS gave 0.30, 0.05, -0.01, -0.13, -0.16, 0.27 (mean 0.05). With ALSQSMDMTSRNVNSVA | DLTTREN | QQYHRLPLS the result was 0.22, 0.24, 0.12, 0.00, -0.04, 0.17 (mean 0.12). For MLTMFANENAGKSNNIA | DTNQLNT | QQYQRLPFM, the assay gave 0.14, 0.22, -0.02, 0.12, 0.14, 0.35 (mean 0.16). The variant KLMYSKEYEQRNKNSVA | EASTRES | QQYHRLPLS gave 0.25, 0.38, -0.17, 0.21, 0.24, 0.20 (mean 0.19). With KFSQQMLYESRMKNPVA | NASQREQ | QQYHRLPLS the result was 0.38, 0.15, 0.22, 0.01, 0.11, 0.31 (mean 0.20). For MISDLTMYGSRNKNSVA | DLSARGS | QQYHRLPLS, the assay gave 0.14, 0.19, 0.17, 0.22, 0.23, 0.36 (mean 0.22).

The variant SIFYGQERDIKHESSIA | NGMARVK | QQYHRLPLS gave 0.41, 0.40, 0.07, 0.19, 0.11, 0.30 (mean 0.25). The variant KLSSSWLMEERNMNSVA | QASQRER | QQYHRLPLS showed 0.80, 0.46, 0.19, 0.52, 0.16, 0.43 (mean 0.43). The variant NLSWKSLGFENEWMAIA | NTKERNA | QQYARLPLS gave 0.68, 0.61, 0.51, 0.42, 0.64, 0.69 (mean 0.59). For TVSQVHEMLSRDKNSVA | DMNTRES | QQYDRLPLS, the assay gave 0.77, 0.98, 0.61, 0.10, 0.36, 1.07 (mean 0.65). The variant MISMEEAPASQQASSIA | HGGTRAE | QQYNRLPLC gave 1.01, 0.72, 0.54, 0.34, 0.51, 0.86 (mean 0.66). For KIGGVTNGISFSKNSVA | EQSTREE | QQYDRLPLS, the assay gave 0.73, 0.73, 1.06, 0.55, 0.60, 0.84 (mean 0.75). The variant KVSCSVMLESRNWNAVA | EASQRES | QQYHRLPLS showed 0.93, 0.59, 0.89, 0.51, 0.73, 1.08 (mean 0.79). For MMSQVTGSGTRHRNNVA | QTSMRES | QQYDRLPLI, the assay gave 1.56, 0.74, 0.84, 0.48, 0.53, 0.93 (mean 0.85).

The variant TISNSFMMENQFKNSVA | QASTRES | QCYDRLPLS showed 0.53, 0.91, 1.20, 0.72, 0.80, 0.94 (mean 0.85). The variant KISGMYQKESKNKNSVA | EMVNREK | QQYDRLPLS showed 1.10, 0.77, 0.44, 1.08, 0.67, 1.31 (mean 0.90). The variant KIGMTLNQLMHQKQNVA | DLVMREN | QQYFRLPLS gave 0.31, 1.36, 0.27, 1.01, 1.89, 0.60 (mean 0.91). With KLPNSSLYESRNKNQVA | SASQRES | QQYHRLPLS the result was 0.73, 1.22, 0.70, 0.91, 0.97, 1.06 (mean 0.93). The variant IISQSMLYESATHNSIA | QTETREE | QQYAHLPLI showed 0.93, 0.80, 1.01, 1.10, 1.04, 1.06 (mean 0.99). The variant FMDFQHLEWQYDANNIA | GATLSVE | QQYGRLPLT showed 1.28, 0.91, 0.70, 0.68, 1.37, 1.15 (mean 1.02). The variant MISQLYNMGSFAINSVA | QAQTRNE | QQYDRLPLM showed 1.01, 0.61, 0.99, 1.69, 1.18, 1.23 (mean 1.12). For MISQLYNMGQFAINSVA | QASQRNE | QQYDRLPLI, the assay gave 1.56, 1.46, 0.78, 1.20, 0.82, 1.22 (mean 1.17).

With QLFFNDFQLDIESQNIA | HASLRYV | QQYARLPLV the result was 1.15, 0.92, 1.18, 1.09, 1.50, 1.54 (mean 1.23). With KLTMMFQHTSKNTNNIA | ERSTREE | QQYHHLPLS the result was ND, 1.02, ND, 0.68, 0.53, 2.71 (mean 1.24). The variant EISILGEEVTQHYSNVA | EQHVTDM | QQYFRLPLS gave 1.62, ND, ND, ND, ND, ND. With RLSEYSHFESKKKNSVA | ENSTREE | QQYDHLPLS the result was 1.43, 1.95, 1.94, 1.13, 1.96, ND (mean 1.68). With HMRHEFYGYWNYDQAVA | HANQRLN | QQYSRLPLS the result was 0.74, 2.02, 1.92, ND, 2.45, ND (mean 1.79). The variant KLSVHTLFESIEKNSVA | ERSTRES | QDYNRLPLS gave ND, ND, 1.02, 2.63, ND, ND (mean 1.83). The variant KLLQEVTGHSRNRNSVA | HNSTRED | QQYDRLPLS showed ND, ND, ND, 2.79, 3.14, ND (mean 2.96).

The authors' rule: three or more of the six replicates give a measured affinity, fewer mean a poor binder.
Nonspecific signal, from three strains lacking the peptide, appeared in 4% of pairings of all light chain designs, centred on 2.64 (5% of these signals below 1.59); values are not corrected for it.
The range of this assay differs from that of the first round, and the authors advise against merging the two.